Assay results taken from PubChem BioAssay (NCI).
The entries are a selection whose mix differs from that of the whole data set. A structure can be active in one record and inactive in another. The source made the active and inactive calls. Cut-off read from the data, not from the text of the source: active = growth inhibition above about 70%; inactive = the rest.

Key:
[1] = NCI Yeast Anticancer Drug Screen. Data for the rad50 strain (AID 155);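 note: 0% = growth of vehicle-only cultures of the same strain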; details: S. cerevisiae rad50 strain growth inhibition, stronger effect = higher value
[2] = NCI Yeast Anticancer Drug Screen. Data for the mec2-1 strain (AID 157); details: S. cerevisiae mec2-1 strain, stronger effect = higher value
[3] = NCI Yeast Anticancer Drug Screen. Data for the sgs1 mgt1 strain (AID 161);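 note: 0% = growth of cultures given vehicle only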; details: S. cerevisiae sgs1 mgt1 strain, stronger effect = higher value
[4] = NCI Yeast Anticancer Drug Screen. Data for the cln2 rad14 strain (AID 165);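 note: 0% = growth equal to vehicle treated cultures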; details: S. cerevisiae cln2 rad14 strain, stronger effect = higher value
[5] = NCI Yeast Anticancer Drug Screen. Data for the bub3 strain (AID 167); details: S. cerevisiae bub3 mutant strain, stronger effect = higher value
[6] = NCI Yeast Anticancer Drug Screen. Data for the mlh1 rad18 strain (AID 175); details: S. cerevisiae mlh1 rad18 strain growth inhibition, stronger effect = higher value
[7] = at 5.0 µM (retest, dose inferred, filed as 0.5)
[8] = at 50.0 µM (retest, dose inferred, filed as 5.0)

Measured: growth inhibition

O=P1(N(CCCl)CCCl)Oc2ccc(Cl)cc2C(C(Cl)(Cl)Cl)O1 (stereo unspecified)
inactive: [1]; [7] 5% | [2]; [7] -4% | [3]; [7] -1% | [4]; [7] 3% | [5]; [7] 10% | [6]; [7] 4%
active: [1]; [8] 98% | [1]; at 50.0 µM 97.8% | [2]; [8] 99% | [2]; at 50.0 µM 97.2% | [3]; [8] 99% | [3]; at 50.0 µM 97.8% | [4]; [8] 97% | [4]; at 50.0 µM 97.2% | [5]; [8] 98% | [5]; at 50.0 µM 97.7% | [6]; [8] 98% | [6]; at 50.0 µM 98.1%

CC(C)c1nc(Nc2ccccc2)n(P(=O)(N(C)C)N(C)C)n1
inactive: [1]; at 1.2 µM 4% | [1]; at 3.7 µM 12% | [1]; [7] 44% | [1]; at 11.0 µM 3% | [1]; at 33.0 µM 67% | [2]; at 1.2 µM 10% | [2]; at 3.7 µM 9% | [2]; [7] 49% | [2]; at 11.0 µM 15% | [2]; at 33.0 µM 50% | [2]; at 50.0 µM 62.5% | [3]; [7] -27% | [3]; [8] 16% | [4]; [7] 68% | [4]; [8] 45% | [5]; at 1.2 µM 13% | [5]; at 3.7 µM 23% | [5]; [7] 30% | [5]; at 11.0 µM 13% | [5]; at 33.0 µM 34% | [5]; [8] 25% | [6]; [7] 45%
active: [1]; [8] 98% | [1]; at 50.0 µM 88.2% | [1]; at 100.0 µM 93% | [2]; [8] 98% | [2]; at 100.0 µM 93% | [5]; at 100.0 µM 91% | [6]; [8] 99% | [6]; at 50.0 µM 81.9%

O=[N+]([O-])C1(Br)CCC(Br)([N+](=O)[O-])CC1 (stereo unspecified)
active: [1]; [7] 98% | [1]; [8] 96% | [1]; at 50.0 µM 97.8% | [2]; [7] 100% | [2]; [8] 97% | [2]; at 50.0 µM 98.2% | [3]; [7] 98% | [3]; [8] 97% | [3]; at 50.0 µM 98.2% | [4]; [8] 86% | [4]; at 50.0 µM 96.8% | [5]; [7] 99% | [5]; [8] 96% | [5]; at 50.0 µM 98% | [6]; [7] 99% | [6]; [8] 96% | [6]; at 50.0 µM 98%
inactive: [4]; [7] 38%

CCC(CO)Nc1c([N+](=O)[O-])cc([N+](=O)[O-])cc1[N+](=O)[O-] (stereo unspecified)
active: [1]; [8] 85% | [1]; at 50.0 µM 88.9% | [2]; [8] 94% | [2]; at 50.0 µM 86.5% | [3]; [8] 93% | [3]; at 50.0 µM 94.2% | [4]; [8] 91% | [4]; at 50.0 µM 92.3% | [5]; [8] 87% | [5]; at 50.0 µM 90.5% | [6]; [8] 94% | [6]; at 50.0 µM 95.7%
inactive: [1]; [7] 7% | [2]; [7] 9% | [3]; [7] 3% | [4]; [7] 4% | [5]; [7] 12% | [6]; [7] 18%

CC(C)[C@@H]1[C@@H](C)[N+]1(C)C
inactive: [1]; [7] 0% | [1]; [8] -2% | [1]; at 50.0 µM 8.5% | [2]; [7] -1% | [2]; [8] -6% | [2]; at 50.0 µM -1.9% | [3]; [7] -5% | [3]; [8] -4% | [3]; at 50.0 µM 8.9% | [4]; [7] -1% | [4]; [8] -3% | [4]; at 50.0 µM 38.8% | [5]; [7] -3% | [5]; [8] -7% | [5]; at 50.0 µM 13.8% | [6]; [7] -1% | [6]; [8] -5% | [6]; at 50.0 µM 17.6%

C[N+]1(CCCCCC[N+]2(C)CCCCCCC2)CCCCCCC1
active: [1]; at 50.0 µM 97.4% | [2]; at 50.0 µM 97.5% | [3]; at 50.0 µM 97.2% | [4]; at 50.0 µM 97.4% | [5]; at 50.0 µM 97% | [6]; at 50.0 µM 97%
inactive: [1]; [7] -12% | [1]; [8] -5% | [2]; [7] -5% | [2]; [8] -2% | [3]; [7] 1% | [3]; [8] 6% | [4]; [7] -4% | [4]; [8] -8% | [5]; [7] 12% | [5]; [8] -6% | [6]; [7] -12% | [6]; [8] 20%

Cc1ccc(CN(CCCl)Cc2ccc(C)cc2)cc1
inactive: [1]; [7] 7% | [2]; [7] 1% | [2]; at 50.0 µM 56.2% | [3]; [7] 5% | [4]; [7] 1% | [4]; [8] 50% | [4]; at 50.0 µM 46.4% | [5]; [7] 3% | [5]; at 50.0 µM 58% | [6]; [7] 29%
active: [1]; [8] 75% | [1]; at 50.0 µM 78.6% | [2]; [8] 87% | [3]; [8] 95% | [3]; at 50.0 µM 90% | [5]; [8] 83% | [6]; [8] 97% | [6]; at 50.0 µM 97.8%

O=C1OC(C(Cl)(Cl)Cl)Sc2ccccc21 (stereo unspecified)
active: [1]; at 50.0 µM 95.7% | [2]; at 50.0 µM 97% | [3]; at 50.0 µM 99% | [5]; at 50.0 µM 95% | [6]; at 50.0 µM 98.6%
inactive: [1]; at 1.2 µM 1% | [1]; at 3.7 µM 7% | [1]; [7] 14% | [1]; at 11.0 µM 17% | [1]; at 33.0 µM 48% | [1]; [8] 20% | [1]; at 100.0 µM 69% | [2]; at 1.2 µM -3% | [2]; at 3.7 µM -2% | [2]; [7] -1% | [2]; at 11.0 µM 2% | [2]; at 33.0 µM 22% | [2]; [8] 12% | [2]; at 100.0 µM 41% | [3]; [7] 2% | [3]; [8] 6% | [4]; [7] 1% | [4]; [8] 7% | [4]; at 50.0 µM 42.8% | [5]; at 1.2 µM -6% | [5]; at 3.7 µM -5% | [5]; [7] -2% | [5]; at 11.0 µM -5% | [5]; at 33.0 µM 7% | [5]; [8] 7% | [5]; at 100.0 µM 33% | [6]; [7] -3% | [6]; [8] 16%
